Marks after values point to notes of the source that are not given here.
How the values were obtained:
Format in all cases: cell-based, human
SW-620 cells = assay: In vitro cell viability assay (CellTiter-Glo, 6 days), SW-620; details: ADC; Table 3a; HER2-negative cell line
Experimental: (§1) Human tumor cell lines SK-BR-3, SW-620, A-549, BT-474, Jurkat Clone E6-1, AU-565, and SK-OV-3 were obtained from American Type Culture Collection (Rockville, MD, USA). FaDu, BxPC-3, HeLa, MV4-11, and RAJI cell lines were obtained from Deutsche Sammlung von Mikroorganismen und Zellkulturen ([…], Germany). Jurkat NucLight Red cells were obtained from Essen BioScience Inc. (Ann Arbor, MI, USA). SK-BR-3 and SK-OV-3 cells were cultured in McCoys 5A medium (Lonza; Walkersville, MD, USA) supplemented with 10% v/w Fetal Bovine Serum (FBS), Heat-inactivated (HI) (Gibco-Life Technologies; Carlsbad, CA) and 80 U/mL Pen/Strep (Gibco-Life Technologies), at 37° C. in a humidified incubator under 5% CO2 atmosphere. SW-620 cells were similarly maintained in RPMI 1640 medium (Lonza), containing 10% v/w FBS HI and 80 U/mL Pen/Strep. A-549 cells were similarly maintained in F-12K Nutrient Mixture (1×) (Gibco-Life Technologies) media supplemented with 80 U/mL Pen/Strep and 5% v/w FBS, which was Qualified (Q) (Gibco-Life Technologies). BT-474 and AU-565 cells were similarly maintained in RPMI 1640 medium (Lonza), containing 10% v/w FBS, which was Qualified (Q) (Gibco-Life Technologies), and 80 U/mL Pen/Strep. Jurkat Clone E6-1, BxPC-3, HeLa, MV4-11, and RAJI cells were similarly maintained in RPMI 1640 medium (Lonza), containing 10% v/w FBS HI and 80 U/mL Pen/Strep. Jurkat NucLight Red cells were similarly maintained in RPMI 1640 medium (Lonza), containing 10% v/w FBS HI, 80 U/mL Pen/Strep and 0.5 μg/mL Puromycin (Gibco-Life Technologies). FaDu cells were cultured in EMEM medium (Lonza) supplemented with 10% v/w FBS HI (Gibco-Life Technologies), 1× GlutaMAX (Gibco-Life Technologies), and 80 U/mL Pen/Strep (Gibco-Life Technologies), at 37° C. in a humidified incubator under 5% CO2 atmosphere.
(§2) Cells in complete growth medium were plated in 96-well plates (90 μL/well) and incubated at 37° C., 5% CO2 at the following cell densities: 6500 SK-BR-3, 4000 SW-620, 2500 A-549, 10000 BT-474, 3000 Jurkat Clone E6-1, 5000 AU-565, 1250 FaDu, 1250 BxPC-3, 1000 HeLa, 7500 MV4-11, 1000 RAJI, 3000 Jurkat NucLight Red, and 4000 SK-OV-3 cells per well. After an overnight incubation, 10 serial log 10 dilutions of the free drugs were made in DMSO (Sigma-Aldrich). These free drug dose-response curves were 10-times further diluted in complete growth medium. For the ADCs according to the invention 10 serial log 10 dilutions were made in complete growth medium. 10 μL of a composition comprising a free drug or an ADC according to the invention was added to the assay plate (final DMSO content for free drugs was 1%). […] Cell viability was assessed after 6 days using a luminescent assay kit (CellTiter-Glo™ (CTG), Promega Corporation) according to the manufacturer's instructions. Percentage cell survival was calculated by dividing the measured luminescence for each free drug or ADC according to the concentration with the average mean of untreated cells (1% or 0.1% DMSO control (for free drugs) or 100% complete growth medium (for ADCs)) multiplied by 100.
(§3) Curves were fitted by non-linear regression using the sigmoidal dose-response equation with variable slope (four parameters) using curve-fitting software (GraphPad Prism, version 9.4.0 for Windows, GraphPad, San Diego, CA or Electronic Laboratory Notebook (ELN) add-in BioAssay, version 19.1.0.0218, Perkin Elmer, Waltham, MA). Relative IC50 values were calculated as the concentration that gives a response halfway between bottom and top of the curve, when using a 4-parameter logistic fit. Data were reported as mean IC50 value of at least one experiment performed in duplicate.

SK-OV-3 cells = assay: In vitro cell viability assay (CellTiter-Glo, 6 days), SK-OV-3; details: ADC; Table 3a
Experimental: (§4) FaDu, BxPC-3, HeLa, MV4-11, and RAJI cell lines were obtained from Deutsche Sammlung von Mikroorganismen und Zellkulturen ([…], Germany). Jurkat NucLight Red cells were obtained from Essen BioScience Inc. (Ann Arbor, MI, USA). SK-BR-3 and SK-OV-3 cells were cultured in McCoys 5A medium (Lonza; Walkersville, MD, USA) supplemented with 10% v/w Fetal Bovine Serum (FBS), Heat-inactivated (HI) (Gibco-Life Technologies; Carlsbad, CA) and 80 U/mL Pen/Strep (Gibco-Life Technologies), at 37° C. in a humidified incubator under 5% CO2 atmosphere. SW-620 cells were similarly maintained in RPMI 1640 medium (Lonza), containing 10% v/w FBS HI and 80 U/mL Pen/Strep. […]
(§5) After an overnight incubation, 10 serial log 10 dilutions of the free drugs were made in DMSO (Sigma-Aldrich). […] Cell viability was assessed after 6 days using a luminescent assay kit (CellTiter-Glo™ (CTG), Promega Corporation) according to the manufacturer's instructions. Percentage cell survival was calculated by dividing the measured luminescence for each free drug or ADC according to the concentration with the average mean of untreated cells (1% or 0.1% DMSO control (for free drugs) or 100% complete growth medium (for ADCs)) multiplied by 100. […]

AU-565 cells = assay: In vitro cell viability assay (CellTiter-Glo, 6 days), AU-565; details: ADC
Experimental: as §1, with “FaDu,” for “Human tumor cell lines SK-BR-3, SW-620, A-549, BT-474, Jurkat Clone E6-1, AU-565, and SK-OV-3 were obtained from American Type Culture Collection (Rockville, MD, USA). FaDu,”, “Jurkat Clone E6-1, BxPC-3, HeLa, MV4-11, and RAJI cells were similarly maintained in RPMI 1640 medium (Lonza), containing 10% v/w FBS HI and 80 U/mL Pen/Strep.” left out
(§6) After an overnight incubation, 10 serial log 10 dilutions of the free drugs were made in DMSO (Sigma-Aldrich). These free drug dose-response curves were 10-times further diluted in complete growth medium. For the ADCs according to the invention 10 serial log 10 dilutions were made in complete growth medium. 10 μL of a composition comprising a free drug or an ADC according to the invention was added to the assay plate (final DMSO content for free drugs was 1%). […] Cell viability was assessed after 6 days using a luminescent assay kit (CellTiter-Glo™ (CTG), Promega Corporation) according to the manufacturer's instructions. Percentage cell survival was calculated by dividing the measured luminescence for each free drug or ADC according to the concentration with the average mean of untreated cells (1% or 0.1% DMSO control (for free drugs) or 100% complete growth medium (for ADCs)) multiplied by 100.
as §3

SK-BR-3 cells = assay: In vitro cell viability assay (CellTiter-Glo, 6 days), SK-BR-3; details: HER2-positive SK-BR-3 cells; trastuzumab DAR8-conjugates
Experimental: as §1, with “FaDu,” for “Human tumor cell lines SK-BR-3, SW-620, A-549, BT-474, Jurkat Clone E6-1, AU-565, and SK-OV-3 were obtained from American Type Culture Collection (Rockville, MD, USA). FaDu,”, “Jurkat Clone E6-1, BxPC-3, HeLa, MV4-11, and RAJI cells were similarly maintained in RPMI 1640 medium (Lonza), containing 10% v/w FBS HI and 80 U/mL Pen/Strep.” left out
as §6, §3

[1] = tested on: Jurkat NucLight Red cells; assay: In vitro cell viability assay (CellTiter-Glo, 6 days), Jurkat NucLight Red; details: ADC, Table 3c; for Jurkat NucLight Red cells IC50: BioAssay software; for Jurkat NucLight Red cells Efficacy: from minimum % viability at highest concentration
Experimental: as §1, §2, §3

FaDu cells = assay: In vitro cell viability assay (CellTiter-Glo, 6 days), FaDu; details: ADC; Table 3b; BioAssay software
Experimental: as §4, §5

BxPC-3 cells = assay: In vitro cell viability assay (CellTiter-Glo, 6 days), BxPC-3; details: ADC; Table 3b; BioAssay software
Experimental: as §4, §5

BT-474 cells = assay: In vitro cell viability assay (CellTiter-Glo, 6 days), BT-474; details: ADC; Table 3b; BioAssay software
Experimental: as §4, §5

Substance | SW-620 cells Efficacy (SW-620 cells) | SW-620 cells IC50 (SW-620 cells) | cytotoxicity compared with trastuzumab-XT17 DAR8 (SK-BR-3 cells) | further results
Trastuzumab conjugate DAR8 - XS23 wild-type conjugation | 0% | >10 µg/mL |  | SK-OV-3 cells IC50 (SK-OV-3 cells): ~1.137^# μg/mL
Trastuzumab conjugate DAR8 - XT97 wild-type conjugation |  |  |  | AU-565 cells IC50 (AU-565 cells; Table 3a): 0.042 µg/mL
trastuzumab-XT41 | 0% | >10 µg/mL | more active | 
trastuzumab-XT123 |  |  | more active | AU-565 cells IC50 (AU-565 cells; Table 3b, BioAssay software): 0.010 µg/mL; Jurkat NucLight Red cells IC50 [1]: >10^# μg/mL; Jurkat NucLight Red cells Efficacy [1]: 4%; FaDu cells IC50 (FaDu cells): 6.639 µg/mL; BxPC-3 cells IC50 (BxPC-3 cells): >10^# μg/mL
Trastuzumab conjugate DAR8 - XT16 wild-type conjugation | 0% | >10 µg/mL |  | 
Trastuzumab conjugate DAR8 - XR4 wild-type conjugation | 0% | >10 µg/mL |  | 
Trastuzumab conjugate DAR2 - XT17 wild-type conjugation | 0% | >10 µg/mL |  | 
trastuzumab-XR16 |  |  | more active | 
trastuzumab-XR12 |  |  | somewhat less active | 
trastuzumab-XT114 |  |  | more active | AU-565 cells IC50 (AU-565 cells; Table 3a, later experiment, direct comparison between DAR8-XX23 and DAR8-XT114): 0.008 µg/mL
trastuzumab-XT46 | 0% | >10 µg/mL | somewhat less active | 
Trastuzumab conjugate DAR8 - XT100 wild-type conjugation |  |  |  | AU-565 cells IC50 (AU-565 cells; Table 3a): 0.024 µg/mL
trastuzumab-XT162 |  |  | more active | AU-565 cells IC50 (AU-565 cells; Table 3b, BioAssay software): 0.018 µg/mL; Jurkat NucLight Red cells IC50 [1]: >10^# μg/mL; Jurkat NucLight Red cells Efficacy [1]: 0%; FaDu cells IC50 (FaDu cells): >10^# μg/mL; BxPC-3 cells IC50 (BxPC-3 cells): >10^# μg/mL
trastuzumab-XX23 |  |  | more active | 
trastuzumab-XT94 |  |  | more active | AU-565 cells IC50 (AU-565 cells; Table 3a): ~0.027^$ μg/mL
trastuzumab-XG2 |  |  | more active | BT-474 cells IC50 (BT-474 cells): 0.036 µg/mL; AU-565 cells IC50 (AU-565 cells; Table 3b, BioAssay software): 0.015 µg/mL; Jurkat NucLight Red cells IC50 [1]: >10^# μg/mL; Jurkat NucLight Red cells Efficacy [1]: 5%
Trastuzumab conjugate DAR8 - XJ9 wild-type conjugation |  |  |  | AU-565 cells IC50 (AU-565 cells; Table 3a): 0.032 µg/mL
Trastuzumab conjugate DAR8 - XT31/XT32 wild-type conjugation | 0% | >10 µg/mL |  | 
trastuzumab-XX19 |  |  | more active | 
Trastuzumab conjugate DAR4 - XT17 wild-type conjugation | 0% | >10 µg/mL |  | 
Trastuzumab conjugate DAR8 - XT54 wild-type conjugation | 0% | >10 µg/mL |  | 
